# AlphaSeq binding of Ab-14 light chain variants to a spike HR2 peptide

From the AlphaSeq antibody data of Li et al. 2023 (doi:10.1038/s41467-023-39022-2), copy in the FLAb collection.

The target is the same throughout: PDVDLGDISGINAS, from the HR2 region of SARS-CoV-2 spike.

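The starting antibody came from a phage panning campaign against this peptide. Designed CDR sequences, proposed from the first random library and measured here. Several design methods are mixed in this list. AlphaSeq pools MATa yeast showing the antibodies with MATalpha yeast showing the peptide. Binding brings cells together so that they mate, and sequencing counts the barcode pairs among the diploids. Read counts were normalised to the haploid input and turned into Kd by a linear fit to BCL2-family pairs of known affinity, for each replicate. The assay was run in six technical replicates.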

Parent: Ab-14, a human scFv built as VH, three GGGGS repeats, VL. Only the CDRs of the light chain vary.
VH: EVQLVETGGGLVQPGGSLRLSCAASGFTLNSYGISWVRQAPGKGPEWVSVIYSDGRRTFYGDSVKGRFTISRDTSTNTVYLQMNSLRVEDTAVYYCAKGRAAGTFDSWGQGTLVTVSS
VL: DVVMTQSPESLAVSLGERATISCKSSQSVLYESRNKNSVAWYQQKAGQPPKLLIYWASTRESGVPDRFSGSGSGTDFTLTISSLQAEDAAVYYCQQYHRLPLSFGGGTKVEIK

Variants are written as CDR1, CDR2 and CDR3 of the light chain (limits as in the source). Parent: KSSQSVLYESRNKNSVA, WASTRES, QQYHRLPLS. Values are log10 of the apparent Kd in nM; lower means stronger binding. Averages over replicates are reported, and they cover detected replicates only. A pair that was not seen in any replicate is written "not detected"; this usually means weak binding, but a binder can also be missed.

CDR-L1,CDR-L2,CDR-L3,mean log10 Kd (nM),seen in,empty controls
SLGLVTMLEYAGRNNVA,NNSTRED,QQYDRLPLS,1.51,1/6,0/18
MLSDLNKMGVRNTQSVA,DNSTRGE,QQYDRLPLS,1.08,6/6,0/18
KLSQSQLYESRNSNSVA,NASQRES,QQYHRLPLS,-0.44,6/6,0/18
KLQSVTGTEKVHGNNVA,EMETRER,QQYNRLPLS,0.23,6/6,1/18
KSSQSYLYESGNKNSVA,NASTRMS,QQYHRLPLS,0.23,6/6,2/18
KLSQSVLYESRNKESVA,KASTREF,QQYHRLPLS,0.83,6/6,2/18
TISQMFLGESRNRNSVA,QASTRES,QAYDRLPLS,1.41,6/6,3/18
KVSSFMRGLMMRTDSIA,DNETRNN,QQYDRLPLS,0.91,6/6,2/18
QMTFQLFEQGNRSGPIA,HESMRET,QQYASLPLT,2.10,2/6,0/18
IVSQLMLWGMHAKNSIA,EASTRLN,QQYERLPLF,2.90,4/6,1/18
KVSQSVLYESRNKNSVA,NASTREK,QQYHRLPLS,-0.41,6/6,2/18
KSEQSVLYESSNKNSVA,WASTRES,QQYHRLPLS,1.73,6/6,0/18
KSSPSVLYESMNKNSVA,NASTRMS,QQYHRLPLS,0.03,6/6,0/18
TISMHTSLFSQTINNVA,EVSTREQ,QQYDRLPLM,0.96,6/6,0/18
KSSNSVFYELINKNGVA,WASTRES,AQYHRLPLS,2.70,1/6,0/18
MFSSLMAYGSRYKNSVA,QASTRED,QQYERLPLS,1.98,2/6,0/18
KLQQSELYESRNKNSVA,NASTRLS,QDYHRLPLS,0.10,6/6,0/18
KSGMGVLYESRNKNSVA,GASTRES,QQYHRLPLS,-0.14,6/6,0/18
KRSQSVLYESRNKNSVA,QASTREH,QQYHDLPLS,0.37,6/6,1/18
IITQSVMQESRNKSNVA,NTEERES,QQYDRLPLI,1.58,6/6,0/18
MLSQMTGLGMKASNSVA,QASMRFN,QQYHRLPLI,1.49,6/6,0/18
KLSQSGLYESRNKNSVA,NASTRES,QDYHRLPLS,0.46,6/6,3/18
QISVFELQGTGWAQNIA,QADHRTE,QQFARLPLV,1.17,6/6,0/18
QMQLNQIEGNQQQNSIA,GESEADM,QHYARLPLT,3.47,1/6,0/18
KIIQSGLYESRNKNSVA,NASTRSP,QQYHRLPLS,-0.05,6/6,3/18
MLLQATMYGERSRNSVA,HASTRED,QQYHRLPLI,0.78,6/6,0/18
KIQPHLSQSFASKNNVA,DRVLSAE,QQYNRLPLV,-0.22,6/6,0/18
KLSQSVLYEMRNKNSVA,QASTRES,QQYHRLPLS,-0.08,6/6,0/18
KLRQITGYESRNKDSIA,DNSTRGR,QQYHRLPLS,2.15,4/6,0/18

Continued, with the values leading:

mean log10 Kd (nM),seen in,empty controls,CDR-L1,CDR-L2,CDR-L3
0.64,6/6,0/18,HITMGMYVSGRYKSNIA,QAETRMK,QQYDRLPLM
1.32,6/6,0/18,TLSGLMDMTSRNVNSVA,DLTTRGN,QQYHRLPLS
0.12,6/6,0/18,TISMVMNHMTRNKNNVA,NMDMRTV,QQYDRLPLS
0.61,6/6,1/18,KSSWSVLYESENKNSVA,HASTRED,QQYHRLPLS
0.89,6/6,0/18,NLNDTPMEQQIHMDAIA,QEAIRNA,QQYARLPLS
4.30,1/6,2/18,KLSQFYRMETRNKNSVA,DNSTRES,QDYDRLPLS
not detected,0/6,0/18,VMQMDLYWNNDETYAIA,DVTMKEK,QQYNRLPLM
0.24,6/6,0/18,KLQNSFLYESRMKNNVA,EASQREM,QQYHRLPLS
1.72,6/6,0/18,KVEYWGDTFHQNDNSIA,HMSMVRD,QQYHRLPLA
-0.79,6/6,0/18,KSSQSWLYESRNKNSVA,GASEREV,QQYHRLPLS
1.29,6/6,0/18,KSSQSVLYHSRNKNSVA,WASTREH,QQYHRLPLS
2.31,6/6,0/18,MLSQLVKMGSRNTNSVA,DNSTRGS,QQYDRLPLS
not detected,0/6,0/18,KSSQSVSNESRNKNSVA,WASTREL,QQYHRLPLS
0.22,6/6,2/18,HQSISVLYESRNKNSVA,NGSTREV,QQYHRLPLS
-0.05,6/6,5/18,KLSQSVLYESRNKNSVA,DASTREQ,QQYHRLPLS
1.09,6/6,0/18,QLAVDRLQEYEMGDAIA,GKTTRED,QQYYRLPLS
-0.34,6/6,0/18,KFSQSVMYESRNKNSVA,NASTRES,QQYHRLPLS
1.10,6/6,0/18,SLSESEREEFSVEQNIA,DGTEHMR,QQYFQLPLL
0.70,6/6,4/18,NLSWKTIGFENEWMAIA,NTSERNA,QQYARLPLS
0.19,6/6,2/18,MAYGGDMLESVTRNSVA,NAETRAN,QDYHRLPLS
0.91,6/6,0/18,MVTQMAMTGMKNKRSVA,NAETRET,QQYHRLPLI
1.32,6/6,1/18,MMSQVTGLGMRHRNNVA,QTSTREP,QQYDRLPLI
1.28,6/6,0/18,MIGEMLMQGIYKKNSIA,QANLRAD,QHYHRLPLE
1.17,6/6,1/18,KISYMGEHFSTNHSAIA,QASTREE,QQYHRLPIS
0.06,6/6,2/18,KLSQSVLYESRNKNSVA,SASTRCS,QQYHRLPLS
3.35,3/6,0/18,KSSQSVLYESRNKNSVA,MASTRES,QQIHRLPLS
-0.11,6/6,2/18,KLQQSVLYESRNKNSVA,NASTREL,QQYHRLPLS
1.51,2/6,1/18,KSSQSVLIESRNINSVA,WASTRES,QQYHRLPLS
0.31,6/6,0/18,MMGKGLMGESRAKNSIA,QASLRED,QQYHRLPLI
1.36,6/6,0/18,TIGQSTLMESMNRNNVA,QMSTREK,QQYDRLPLS

Extract of 7 entries:

CDR-L1,CDR-L2,CDR-L3,mean log10 Kd (nM),seen in,empty controls
MIGEMLMQGIYKKNSIA,QANLRAD,QHYHRLPLE,1.28,6/6,0/18
MMGKGLMGESRAKNSIA,QASLRED,QQYHRLPLI,0.31,6/6,0/18
NLSWKTIGFENEWMAIA,NTSERNA,QQYARLPLS,0.70,6/6,4/18
TLSGLMDMTSRNVNSVA,DLTTRGN,QQYHRLPLS,1.32,6/6,0/18
KVSSFMRGLMMRTDSIA,DNETRNN,QQYDRLPLS,0.91,6/6,2/18
VMQMDLYWNNDETYAIA,DVTMKEK,QQYNRLPLM,not detected,0/6,0/18
MFSSLMAYGSRYKNSVA,QASTRED,QQYERLPLS,1.98,2/6,0/18

The range of this assay differs from that of the first round, and the authors advise against merging the two. The authors averaged sequences with at least three values out of six and counted those with two or fewer as poor binders. The parent sequence was in this pool as ten entries: three were never detected, three once, and four in most replicates, with averages from 0.34 to 2.37. Three control strains display no target. For all light chain designs, 4% of the pairings with them gave a signal, with a median of 2.64 and one signal in twenty below 1.59, so weak values seen in few replicates may be background. Also given: how often the same scFv was detected with the empty control strains.